This is an account of results in ChEMBL document CHEMBL6127132, “Design, Synthesis, and Biological Evaluation of Novel Diaminopyrimidine Macrocycles as Fourth Generation Reversible EGFR Inhibitors That Overcome Clinical Resistance to Osimertinib Mediated by C797S Mutation” (J Med Chem, 2024).

By UniProt entry, the sequences of proteins in these tests, tags left out. Residues count along the entry.
UniProt P00533, whole entry, looked up, stated change not applied: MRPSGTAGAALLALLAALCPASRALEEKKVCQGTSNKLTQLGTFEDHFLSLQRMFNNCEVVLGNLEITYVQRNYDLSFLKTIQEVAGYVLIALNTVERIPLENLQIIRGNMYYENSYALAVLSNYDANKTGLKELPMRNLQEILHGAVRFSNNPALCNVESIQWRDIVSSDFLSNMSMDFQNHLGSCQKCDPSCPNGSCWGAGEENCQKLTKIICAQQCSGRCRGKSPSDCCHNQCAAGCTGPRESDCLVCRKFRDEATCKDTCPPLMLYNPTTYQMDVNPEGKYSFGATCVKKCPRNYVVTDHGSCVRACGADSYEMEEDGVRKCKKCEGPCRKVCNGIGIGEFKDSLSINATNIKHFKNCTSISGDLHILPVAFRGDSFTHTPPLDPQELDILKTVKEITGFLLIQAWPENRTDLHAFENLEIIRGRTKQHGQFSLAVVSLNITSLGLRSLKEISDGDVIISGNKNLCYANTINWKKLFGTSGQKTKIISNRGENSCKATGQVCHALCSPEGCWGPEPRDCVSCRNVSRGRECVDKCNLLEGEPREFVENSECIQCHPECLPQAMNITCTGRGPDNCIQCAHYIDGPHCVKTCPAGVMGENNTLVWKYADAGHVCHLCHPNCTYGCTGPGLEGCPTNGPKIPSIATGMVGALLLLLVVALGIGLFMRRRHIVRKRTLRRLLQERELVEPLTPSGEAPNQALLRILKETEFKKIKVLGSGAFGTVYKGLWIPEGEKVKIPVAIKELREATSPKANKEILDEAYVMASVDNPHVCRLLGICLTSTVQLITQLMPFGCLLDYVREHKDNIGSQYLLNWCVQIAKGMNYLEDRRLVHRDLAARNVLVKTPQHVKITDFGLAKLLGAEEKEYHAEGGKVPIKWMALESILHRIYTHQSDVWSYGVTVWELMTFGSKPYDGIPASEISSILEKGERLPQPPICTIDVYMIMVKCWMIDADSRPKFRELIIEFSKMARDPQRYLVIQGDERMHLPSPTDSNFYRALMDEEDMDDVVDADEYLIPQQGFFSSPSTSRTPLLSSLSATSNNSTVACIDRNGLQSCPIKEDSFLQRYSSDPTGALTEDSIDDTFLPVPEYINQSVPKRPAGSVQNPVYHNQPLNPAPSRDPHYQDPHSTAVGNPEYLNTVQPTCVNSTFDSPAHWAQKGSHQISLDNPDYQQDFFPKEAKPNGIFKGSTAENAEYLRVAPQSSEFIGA
UniProt P00533, 25-1210 T790M/L858R limits assumed: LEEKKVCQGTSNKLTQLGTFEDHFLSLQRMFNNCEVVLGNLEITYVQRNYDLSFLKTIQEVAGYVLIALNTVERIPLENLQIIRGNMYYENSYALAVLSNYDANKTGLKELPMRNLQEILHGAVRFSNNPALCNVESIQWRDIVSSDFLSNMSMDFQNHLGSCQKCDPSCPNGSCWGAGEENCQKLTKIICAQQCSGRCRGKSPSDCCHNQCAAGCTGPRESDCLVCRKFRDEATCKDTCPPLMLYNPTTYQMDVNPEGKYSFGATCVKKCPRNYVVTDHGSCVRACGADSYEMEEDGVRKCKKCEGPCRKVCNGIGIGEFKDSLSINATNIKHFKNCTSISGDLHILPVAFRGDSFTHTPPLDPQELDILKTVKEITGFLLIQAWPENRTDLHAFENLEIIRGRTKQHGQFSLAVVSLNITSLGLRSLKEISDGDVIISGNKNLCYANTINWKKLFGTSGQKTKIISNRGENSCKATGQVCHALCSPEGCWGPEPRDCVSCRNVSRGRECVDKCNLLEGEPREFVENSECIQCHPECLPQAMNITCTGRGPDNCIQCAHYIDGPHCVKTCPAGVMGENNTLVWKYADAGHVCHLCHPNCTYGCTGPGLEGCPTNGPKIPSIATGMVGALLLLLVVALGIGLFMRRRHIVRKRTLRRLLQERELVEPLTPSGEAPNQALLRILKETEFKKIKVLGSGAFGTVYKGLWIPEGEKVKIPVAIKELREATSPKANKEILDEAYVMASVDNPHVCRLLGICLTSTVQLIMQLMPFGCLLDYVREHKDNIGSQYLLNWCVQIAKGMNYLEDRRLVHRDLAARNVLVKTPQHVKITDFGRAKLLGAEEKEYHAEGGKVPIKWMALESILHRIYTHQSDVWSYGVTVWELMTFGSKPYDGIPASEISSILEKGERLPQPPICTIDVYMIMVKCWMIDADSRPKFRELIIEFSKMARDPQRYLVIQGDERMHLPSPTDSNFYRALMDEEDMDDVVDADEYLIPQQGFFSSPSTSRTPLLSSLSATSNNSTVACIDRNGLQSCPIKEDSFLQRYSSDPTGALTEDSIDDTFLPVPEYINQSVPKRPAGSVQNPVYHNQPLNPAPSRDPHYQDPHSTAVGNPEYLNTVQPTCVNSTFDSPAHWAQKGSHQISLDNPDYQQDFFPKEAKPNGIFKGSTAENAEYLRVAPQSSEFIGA

Experiment [1] deals with Epidermal growth factor receptor (Homo sapiens, UniProt P00533, C797S/EX19DEL/T790M). Description: Inhibition of recombinant N-terminal GST-tagged human EGFR 19del/T790M/C797S mutant (668 to end residues) extracted from Sf9 insect cells incubated for 1 hrs by spectrophotometric analysis. The experiment is classed as cell-free.
For experiment [2], the target named is Epidermal growth factor receptor (Homo sapiens, UniProt P00533, L858R/T790M). Description: Inhibition of recombinant N-terminal GST-tagged human EGFR T790M/L858R mutant (696 to end residues) extracted from baculovirus infect Sf21 insect cells incubated for 1 hrs by spectrophotometric analysis.

As a reminder, the IC50 is the point on the concentration scale where inhibition reaches its midpoint. As to `CCC(=O)Nc1cc(Nc2nccc(-c3cn(C)c4ccccc34)n2)c(OC)cc1N(C)CCN(C)C`, the IC50 was 0.28 µM in experiment [1] and 0.261 µM in experiment [2].
